Experimental data published in paper PMC6609384, “Pharmacokinetics of cucurbitacin B from Trichosanthes cucumerina L. in rats” (BMC Complementary and Alternative Medicine, 2019).

Assay: Stability of cucurbitacin B in QC samples at different storage conditions
Format: in vitro ADME, rat
Experimental: The analytical method was performed according to US FDA bioanalytical method validation - guidance for industry. The following parameters were evaluated during the validation process including: selectivity, matrix effect and recovery, linearity, lower limit of quantification (LLOQ), accuracy, precision, and stability. Quality control (QC) samples were prepared prior to the validation process and three concentrations of analytical cucurbitacin B standard solution including 0.5, 10, and 15 μg/L were selected as representatives of low, medium, and high concentration, respectively.
The stability test consisted of short term stability at room temperature, long term stability at storage conditions, freeze-thaw stability, and autosampler stability. Short term stability was evaluated at room temperature for 24 h. Long term stability was assessed at − 20 °C for 3 months. The freeze–thaw stability of cucurbitacin B was tested by analyzing QC at three different concentrations subjected to three freeze-thaw cycles (− 20 and 25 °C). Lastly, autosampler stability was determined by measuring the peak area obtained from freshly prepared QC samples compared with samples that were stored in the autosampler compartment for 24 h.

Cucurbitacin B
%Recovery (stability) (Autosampler (10 °C), QC 0.5 μg/L): 89.05%
%Recovery (stability) (Autosampler (10 °C), QC 10 μg/L): 109.57%
%Recovery (stability) (Autosampler (10 °C), QC 15 μg/L): 100.75%
room temperature stability (recovery) (QC samples left at 25 °C for 24 h): 81.30–86.10%
%Recovery (stability) (Room temperature (12 h), QC 0.5 μg/L): 81.34%
%Recovery (stability) (Room temperature (12 h), QC 10 μg/L): 83.32%
%Recovery (stability) (Room temperature (12 h), QC 15 μg/L): 86.16%
%Recovery (stability) (Storage at −20 °C (3 months), QC 0.5 μg/L): 90.54%
%Recovery (stability) (Storage at −20 °C (3 months), QC 10 μg/L): 99.72%
%Recovery (stability) (Storage at −20 °C (3 months), QC 15 μg/L): 97.93%
%Recovery (stability) (Three freeze-thaw cycles, QC 0.5 μg/L): 92.01%
%Recovery (stability) (Three freeze-thaw cycles, QC 10 μg/L): 99.50%
%Recovery (stability) (Three freeze-thaw cycles, QC 15 μg/L): 99.54%
stability (recovery) (all test conditions): 81.30–109.50%
